We go through one compound from PubChem BioAssay AID1963597 (National Center for Advancing Translational Sciences (NCATS), 2024).

The test system of this data set is human liver microsomes, metabolic stability half-life. Briefly: NCATS Human Liver Microsomal (HLM) Stability Profiling. The note with it: hits give high values. The text has this: Assay submitter (PI): Dr. Pranav Shah
NIH Center for Advancing Translational Sciences
Pharmacokinetic issues were the leading cause of drug attrition, accounting for approximately 40% of all cases before the turn of the century. To this end, several high-throughput in vitro assays like microsomal stability have been developed to evaluate the pharmacokinetic profiles of compounds in early stages of drug discovery. At NCATS, a single-point rat liver microsomal (RLM) stability assay is used as a Tier I assay, while human liver microsomal (HLM) stability is employed as a Tier II assay. While it is beneficial to have compound libraries screened for HLM stability, the increasing magnitude of hits routinely generated, and the time- and re-source-intensive nature of the assay makes it important to find alternatives. One strategy is to rely on in silico models that have been developed using data generated from these assays. Herein, we describe the development of an HLM stability prediction model using our in-house dataset of ~7,000 compounds, employing both traditional and advanced machine learning methods. […]
The substrate depletion method, also called the in vitro t1/2 method was used to analyze test compounds. […] Sample quantification and analysis was performed using a previously described method (Shah et al., 2016, Siramshetty et al., 2020). […]

For orientation: half-life means the time in which the quantity being followed falls by half. With `CC(=O)N1CCc2ccc(N(C(=O)/C=C/c3cccc(C#N)c3)C3CCN(CCC4CCCC4)CC3)cc21`, the half-life is 11.2 min.
